Measured values taken from paper PMC11878239, “Biochemical investigations using mass spectrometry to monitor JMJD6-catalysed hydroxylation of multi-lysine containing bromodomain-derived substrates” (RSC Chemical Biology, 2025).
Where “and” joins values, the source holds several entries; their conditions need not be identical. Identical values can stand only once.

Key:
KDM4C = system: KDM4C; design: method as in PMID 21859681; conditions: KDM4C (0.5 μM), ARTAQTARK(me3)STGGIA as substrate; SPE-MS; cited from earlier work
full-length His6-JMJD6 = biological target: T1, full-length His6-JMJD6 (Homo sapiens, UniProt Q6NYC1); experiment: SPE-MS kinetics of JMJD6-catalysed lysyl hydroxylation (2OG, Fe(II), LAA, BRD-derived peptides); format: biochemical
T1 construct: An enzyme mixture (10 μL) containing full-length His6-JMJD6 (5 μM; final concentration: 0.05 μM); made in house; host or cells: Escherichia coli BL21 (DE3), pET-28a(+) plasmid
Procedure: Recombinant human JMJD6 (full length with a N-terminal His6-tag) was produced in Escherichia coli BL21 (DE3) cells using a pET-28a(+) plasmid and purified by standard Ni(II)-affinity size-exclusion chromatography, as previously reported.[40] […] Purified JMJD6 was stored at −78 °C; fresh aliquots were used for all JMJD6 assays.
Peptides were used as 10 mM stock solutions in DMSO (Sigma-Aldrich; BioUltra grade).
Assay samples were aspirated under vacuum for 0.4 s, then loaded onto a C4 solid phase extraction (SPE) cartridge. After loading, the C4 SPE cartridge was washed with 0.1%v/v aqueous formic acid to remove non-volatile buffer salts (5 s, 1.5 mL min^−1). The peptide was eluted from the SPE cartridge with 0.1%v/v aqueous formic acid in 75/25v/v acetonitrile/water into the mass spectrometer (5 s, 1.6 mL min^−1) and the SPE cartridge re-equilibrated with 0.1%v/v aqueous formic acid (1 s, 1.25 mL min^−1).
Peaks corresponding to the m/z +5 charge states of the BRD-derived substrate peptide and the hydroxylated product peptides were extracted from the ion chromatogram and integrated using RapidFire Integrator 4.3.0 (Agilent). Peak area data were exported into Microsoft Excel and used to calculate the relative abundance of the mono-hydroxylated product peptide using the following equation: […]
The concentration of the mono-hydroxylated product peptide was calculated by multiplying the %-fraction of the mono-hydroxylated product peptide by the initial concentration of the substrate peptide employed in the assay. Initial reaction velocities were then calculated and fitted to a Michaelis–Menten plot using nonlinear regression (GraphPad Prism 5).

JMJD5 = system: JMJD5; design: method as in PMID 37292060; conditions: JMJD5 (0.15 μM), RSP6_128–148 as substrate; SPE-MS; 2OG or Fe(II); cited from earlier work
FIH = system: FIH; design: method as in PMID 34759269; conditions: FIH (0.15 μM), HIF-1α789–822 as substrate; SPE-MS; cited from earlier work
BBOX = system: BBOX; design: method as in PMID 25030770, PMID 24317009; conditions: BBOX (0.05 μM), γ-butyrobetaine as substrate; 1H NMR turnover assay; cited from earlier work
AspH315–758 = system: AspH315–758; design: method as in PMID 32107312; conditions: AspH315–758 (0.1 μM), hFX-CP101–119 as substrate; SPE-MS; 2OG or Fe(II); cited from earlier work

## O=C(O)CCC(=O)C(=O)O [2OG, 2-oxoglutarate]
KDM4C
  k cat/Km: 28.5 ± 1.3 mM⁻¹ s⁻¹
full-length His6-JMJD6; 2OG or Fe(II) varied, BRD4_511–550 (2 μM) as substrate, 0.05 μM full-length His6-JMJD6, LAA 100 μM, 50 mM Tris pH 7.5, ambient temperature, ~20 min, SPE-MS, mean ± SD n = 3
  apparent maximum velocity v^app max: 3.5 ± 0.1 nM/s
full-length His6-JMJD6; 2OG or Fe(II) varied, BRD4_511–550 (2 μM) as substrate, 0.05 μM full-length His6-JMJD6, pH 7.5, ambient temperature, calculated from v^app max assuming active JMJD6 = total enzyme, n = 3
  apparent turnover number k^app cat: 0.070 ± 0.002 s⁻¹
full-length His6-JMJD6; 2OG or Fe(II) varied, BRD4_511–550 (2 μM) as substrate, 0.05 μM full-length His6-JMJD6, pH 7.5, ambient temperature, n = 3
  specificity constant kcat/Km: 3.0 ± 0.4 mM⁻¹ s⁻¹
full-length His6-JMJD6; JMJD6 versus isolated human BBOX (1H NMR turnover assays)
  K^app m for 2OG: fold less than that of BBOX: ~6 fold
JMJD5
  k cat/Km: 19.3 ± 5.8 mM⁻¹ s⁻¹
FIH
  k cat/Km: 47.6 ± 12.5 mM⁻¹ s⁻¹
BBOX
  K^app m: ~150 µM and 153 ± 44 µM
  k cat/Km: 10 ± 3 mM⁻¹ s⁻¹
  k^app cat: 1.6 ± 0.1 s⁻¹
AspH315–758
  k cat/Km: 320 ± 70 mM⁻¹ s⁻¹
